These results are taken from patent publication US20110105397A1, “METHOD FOR TREATING HEART FAILURE WITH STRESSCOPIN-LIKE PEPTIDES” (priority 2009, published 2011).

Amino acid sequences for entries named in this document (tags omitted). Residues count along the entry.
UniProt Q60748, 1-431 isoform Q60748-2: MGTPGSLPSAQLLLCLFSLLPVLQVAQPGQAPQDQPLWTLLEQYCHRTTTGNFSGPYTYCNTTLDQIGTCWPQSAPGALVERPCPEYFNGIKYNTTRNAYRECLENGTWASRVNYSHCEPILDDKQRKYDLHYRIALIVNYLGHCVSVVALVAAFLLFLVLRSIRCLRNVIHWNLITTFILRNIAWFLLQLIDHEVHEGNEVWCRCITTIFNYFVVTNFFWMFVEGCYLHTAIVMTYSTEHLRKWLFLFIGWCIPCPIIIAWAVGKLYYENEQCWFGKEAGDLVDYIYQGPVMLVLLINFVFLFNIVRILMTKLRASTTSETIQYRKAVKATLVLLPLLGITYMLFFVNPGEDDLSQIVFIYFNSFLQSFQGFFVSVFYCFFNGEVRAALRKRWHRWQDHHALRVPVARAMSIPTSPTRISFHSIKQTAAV

One assay addresses T1, CRHR1 (Homo sapiens, UniProt P34998).
T1 sequence (P34998 24-415): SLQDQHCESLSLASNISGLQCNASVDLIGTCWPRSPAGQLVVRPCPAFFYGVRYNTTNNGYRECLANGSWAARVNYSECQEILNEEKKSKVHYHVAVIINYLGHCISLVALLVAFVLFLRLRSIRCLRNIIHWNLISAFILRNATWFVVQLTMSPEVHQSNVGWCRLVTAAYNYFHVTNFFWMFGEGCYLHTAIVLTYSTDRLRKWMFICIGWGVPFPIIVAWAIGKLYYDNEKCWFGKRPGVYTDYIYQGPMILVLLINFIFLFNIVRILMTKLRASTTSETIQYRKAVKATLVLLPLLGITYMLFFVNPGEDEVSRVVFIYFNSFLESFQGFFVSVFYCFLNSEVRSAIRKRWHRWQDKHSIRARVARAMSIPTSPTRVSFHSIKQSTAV
The assay is described as follows: CRHR1 radioligand binding, [125I]-(Tyr0)-sauvagine. Set-up: host or cells: cell membranes. As for the experimental part: The solution was then homogenized with a Polytron tissue grinder at a setting of 10 and 7×3 s (Brinkmann Instruments, Westbury, N.Y.). […] The supernatant was re-centrifuged at 26,892×g for 25 min at 4° Celsius with the final pellet being re-suspended in assay buffer. […] For competition studies, cell membranes of […] volume were incubated with either 60 pM [^125I]-anti-sauvagine-30 in 50 μl volume for the CRHR2 assay or with)[^125I]-([…]-sauvagine for the CRHR1 assay in the presence of 15 μl of competing ligand for 120 min having a total volume of 150 μl. […] The bound radioactivity was separated by filtration using a Multiscreen Resist manifold (Millipore Corp., Billerica, Mass., U.S.A). The filters were washed three times with ice-cold PBS at pH 7.5 and radioactivity retained on the filters was quantified by its liquid scintillation measured by a TopCount counter (Packard BioScience, Boston, Mass., U.S.A). All experiments were performed in triplicate. Data from individual competition curves were expressed as the percentage of specific [^125I]-anti-sauvagine-30 or)[^125I]-([…]-sauvagine binding (B) within each experiment.

Assay [1] concerns isolated rat aortic rings. The assay is described as follows: Vascular smooth muscle relaxation, isolated rat aortic rings pre-contracted with phenylephrine. From the text: The ability of h-SCP (SEQ ID NO:1) to relax vascular smooth muscle was examined in isolated, rat aortic rings pre-contracted with phenylephrine (PE) (FIG. 8). […] The responses caused by h-SCP (SEQ ID NO:1) were inhibited by anti-sauvagine-30 (SEQ ID NO:118).

The target of another assay is m-CRHR2b (Mus musculus, UniProt Q60748). The note with it: m-CRHR2b transfected HEK-293 cells (Brauns et al., 2002); cited from earlier work.
In assay [2] the test system is healthy and heart failure subjects. The note with it: healthy 5.16 and 20.8 ng/kg/min; heart failure 4.29 and 17.2 ng/kg/min; cited from earlier work.

On CRHR1, `CC[C@H](C)[C@H](NC(=O)[C@H](CCC(N)=O)NC(=O)[C@H](C)NC(=O)[C@H](CCSC)NC(=O)[C@H](CC(C)C)NC(=O)[C@H](Cc1c[nH]cn1)NC(=O)[C@H](C)NC(=O)[C@H](CC(N)=O)NC(=O)[C@H](C)NC(=O)[C@H](C)NC(=O)[C@H](C)NC(=O)[C@H](CCC(N)=O)NC(=O)[C@H](C)NC(=O)[C@H](CCCNC(=N)N)NC(=O)[C@H](CC(C)C)NC(=O)[C@H](CC(N)=O)NC(=O)[C@H](CCCCN)NC(=O)[C@H](C)NC(=O)[C@H](CCCCN)NC(=O)[C@H](C)NC(=O)[C@@H](NC(=O)[C@H](CC(N)=O)NC(=O)[C@H](Cc1ccccc1)NC(=O)[C@H](CC(C)C)NC(=O)[C@H](CC(C)C)NC(=O)[C@H](CC(N)=O)NC(=O)[C@H](CCSC)NC(=O)[C@@H](NC(=O)[C@H](CC(N)=O)NC(=O)[C@@H](NC(=O)[C@@H]1CCCN1C(=O)[C@@H](NC(=O)[C@H](CC(=O)O)NC(=O)[C@H](CC(C)C)NC(=O)[C@H](CO)NC(=O)[C@H](CC(C)C)NC(=O)[C@@H](NC(=O)[C@@H](N)Cc1ccccc1)[C@@H](C)O)C(C)C)[C@@H](C)O)[C@@H](C)CC)[C@@H](C)CC)C(N)=O` [SEQ ID NO: 116, FTLSLDVPTNIMNLLFNIAKAKNLRAQAAANAHLMAQI-NH2] had a Ki of 11 µM and a nH of 0.79 ± 1.21.

In assay [1], `CC[C@H](C)[C@H](N)C(=O)N[C@H](C(=O)N[C@@H](CC(C)C)C(=O)N[C@@H](CO)C(=O)N[C@@H](CC(C)C)C(=O)N[C@@H](CC(=O)O)C(=O)N[C@H](C(=O)N1CCC[C@H]1C(=O)N[C@H](C(=O)NCC(=O)N[C@@H](CC(C)C)C(=O)N[C@@H](CC(C)C)C(=O)N[C@@H](CCC(N)=O)C(=O)N[C@H](C(=O)N[C@@H](CC(C)C)C(=O)N[C@@H](CC(C)C)C(=O)N[C@@H](CCC(=O)O)C(=O)N[C@@H](CCC(N)=O)C(=O)N[C@@H](C)C(=O)N[C@@H](CCCNC(=N)N)C(=O)N[C@@H](C)C(=O)N[C@@H](CCCNC(=N)N)C(=O)N[C@@H](C)C(=O)N[C@@H](C)C(=O)N[C@@H](CCCNC(=N)N)C(=O)N[C@@H](CCC(=O)O)C(=O)N[C@@H](CCC(N)=O)C(=O)N[C@@H](C)C(=O)N[C@H](C(=O)N[C@H](C(=O)N[C@@H](CC(N)=O)C(=O)N[C@@H](C)C(=O)N[C@@H](CCCNC(=N)N)C(=O)N[C@H](C(=O)N[C@@H](CC(C)C)C(=O)N[C@@H](C)C(=O)N[C@@H](CCCNC(=N)N)C(=O)N[C@H](C(N)=O)C(C)C)[C@@H](C)CC)[C@@H](C)O)[C@@H](C)O)[C@@H](C)CC)[C@@H](C)CC)C(C)C)C(C)C` [SEQ ID NO: 115, IVLSLDVPIGLLQILLEQARARAAREQATTNARILARV-NH2, reference compound] had a pA50 of relaxation of 7.01±0.13. In addition, the “Published pA50” value at m-CRHR2b was 9.12. In addition, the “effect on LVEF, CO, heart rate and blood pressure” value in assay [2] is “increases in LVEF and CO in the subjects that were accompanied by a significant increase in heart rate and decrease in blood pressure”.

The Ki is the dissociation constant of the complex between target and ligand, obtained from inhibition or displacement. Lower therefore signals a stronger hold on the target.
